These are literature values, as cited in US20150366901A1, “Methods of Treating Heart Failure” (The Trustees of the University of Pennsylvania, priority 2013, published 2015).

The series has as its system healthy volunteers. The conditions noted are these: ingestion of 8 mmol, 3 hours post-ingestion.

For the substance inorganic nitrate, the plasma nitrates result is reported as “increased plasma nitrates”.
